## Yeast mating assay 2: variants of the scFv Ab-95

Antigen: PDVDLGDISGINAS, a 14-residue peptide of the SARS-CoV-2 spike HR2 region.

Parent: Ab-95, a human scFv built as VH, the linker GGGGSGGGGSGGGGS, VL. Only the CDRs of the light chain vary.
VH: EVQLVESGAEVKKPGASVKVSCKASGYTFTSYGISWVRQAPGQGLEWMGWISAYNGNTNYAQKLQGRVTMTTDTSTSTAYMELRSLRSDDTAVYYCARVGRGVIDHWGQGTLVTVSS
VL: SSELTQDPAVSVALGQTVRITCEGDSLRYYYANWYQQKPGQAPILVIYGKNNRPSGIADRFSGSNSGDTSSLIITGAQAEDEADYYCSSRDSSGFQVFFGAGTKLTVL

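Phage display of a naive human antibody library on the peptide gave the parent. AAYL52 was designed without a model: most single CDR substitutions and a random sample of double and triple ones. In AlphaSeq, yeast of one mating type display the scFv and yeast of the other type display the target. After mating in shaken culture at 30 °C for 16 h, diploids were selected and their barcode pairs sequenced. The ratio of observed to expected reads was calibrated, replicate by replicate, on BCL2-family standards whose Kd was known from biolayer interferometry. Mating was done three times.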

Positions count from residue 1 of the parent VL; E23W puts W in place of E. Every variant below is changed at E23 of the VL (sequential numbering). Each Kd is an estimate from the mating assay, the geometric mean of the replicates in which the pair was seen; lower is stronger. Where no diploid with the target was found in any replicate, the entry reads "nd": below detection, most likely a poor binder, though not proof of it. Empty control strains, which show no peptide, gave a signal in 28% of pairings with library AAYL52; the median was 8.2 µM and 95% of these signals were weaker than 800 nM. No background was subtracted. Also given: how often the same scFv was detected with the empty control strains.

changes	Kd (apparent)	detected	control signals
E23W/Y29M/Y30R	56 nM	3/3	5/9
E23A/S26H/L27M	1.9 µM	2/3	2/9
E23N/G24P/D25Y	49 µM	2/3	4/9
E23V/S26N/Q96K	2.7 µM	1/3	2/9
E23I/G24K/G49H	5.0 µM	1/3	2/9
E23P/Y31G/D91T	nd	0/3	2/9
E23D/Y30G/S92V	3.2 nM	3/3	6/9
E23K/G49W/V97H	330 µM	1/3	3/9
E23T/D25T/G94D	730 nM	3/3	5/9
E23W/K50W/S93M	4.7 µM	3/3	0/9
E23K/Y31C/R90T	130 µM	1/3	2/9
E23Q/N52C/P54L	49 µM	2/3	3/9
E23C/L27A/V97P	nd	0/3	0/9
E23S/S88Q/G94F	130 nM	3/3	5/9
E23I/Y31E/R53W	1.7 µM	3/3	3/9
E23W/S88Q/S89C	560 nM	3/3	2/9
E23A/G24T/Q96P	3.7 µM	2/3	6/9
E23T/L27W/Y29D	970 nM	3/3	3/9
E23A/Y30R/V97L	170 nM	3/3	5/9
E23Q/R28W/G49M	39 µM	3/3	3/9
E23F/S26E/D91M	7.1 µM	1/3	7/9
E23K/R90L/F98E	5.4 µM	1/3	3/9
E23L/P54M/R90D	2.0 µM	2/3	3/9
E23L/S55T	50 nM	3/3	2/9
E23D/G49W/N52F	27 µM	3/3	5/9
E23L/S26E/G49V	19 µM	2/3	4/9
E23V/L27F/Q96Y	nd	0/3	1/9
E23K/D91K	17 µM	1/3	1/9
E23G/N33A/S93P	980 nM	1/3	2/9
E23Y/Y29V/G94M	1.9 µM	2/3	2/9
E23A/P54E/D91K	1.3 µM	3/3	2/9
E23Y/Y31L/K50V	1.4 µM	3/3	2/9
E23K/D25P/Q96W	nd	0/3	2/9
E23Y/N33C/N51V	38 µM	2/3	3/9
E23P/L27H/G49V	nd	0/3	0/9
E23D/N33A/V97I	24 µM	2/3	3/9
E23Y/D91M/S92F	23 µM	1/3	1/9
E23F/L27C/S89Y	12 µM	1/3	0/9
E23Y/N33G/F98W	19 µM	2/3	3/9
E23P/K50S	1.5 µM	2/3	3/9
E23G/R28M/Y29F	440 nM	3/3	2/9
E23R/L27F/R90L	1.1 µM	2/3	5/9
E23T/P54K/G94L	nd	0/3	1/9
E23G/S26C/Y31L	nd	0/3	2/9
E23H/S93Q/Q96F	680 nM	3/3	4/9
E23K/N33A/G94D	nd	0/3	3/9
E23N/D91L/G94H	3.7 µM	3/3	0/9
E23A/R28E/F98I	410 nM	3/3	3/9
E23A/G49E/R90E	6.5 µM	1/3	2/9
E23G/N33T/D91T	9.2 µM	1/3	2/9
E23C/Y30Q/G49E	32 nM	3/3	0/9
E23I/S55K/V97E	310 nM	3/3	4/9
E23L/G24P/R90P	33 µM	2/3	2/9
E23M/S89W	nd	0/3	2/9
E23W/S26A/R90A	13 µM	2/3	2/9
E23W/S93F/F95A	1.8 µM	3/3	5/9
E23T/Y30Q/N51G	1.6 nM	3/3	2/9
E23G/R28C/N52R	4.3 µM	1/3	3/9
E23S/S89P/S93W	440 nM	3/3	4/9
E23I/N51E/N52I	580 nM	2/3	1/9
E23W/D25Y/Q96D	15 µM	1/3	3/9
E23W/N52R	6.1 µM	3/3	1/9
E23D/R90Q	22 µM	2/3	1/9
E23D/D25Y/L27A	5.3 µM	2/3	4/9
E23R/K50P/D91L	310 nM	3/3	1/9
E23W/Y29C/N51Q	nd	0/3	1/9
E23I/Y31R/D91Q	3.4 µM	1/3	0/9
E23F/L27N/V97N	4.8 µM	2/3	0/9
E23A/S93H/G94S	140 nM	3/3	5/9
E23H/D25R/G94M	8.4 µM	2/3	1/9
E23Y/S89H/S92H	nd	0/3	0/9
E23K/G49Q/P54Y	1.9 µM	3/3	2/9
E23A/Y29G	13 nM	3/3	5/9

Top 5 of the variants detected in all replicates, tightest first:

| changes | Kd (apparent) | detected | control signals |
|---|---|---|---|
| E23T/Y30Q/N51G | 1.6 nM | 3/3 | 2/9 |
| E23D/Y30G/S92V | 3.2 nM | 3/3 | 6/9 |
| E23A/Y29G | 13 nM | 3/3 | 5/9 |
| E23C/Y30Q/G49E | 32 nM | 3/3 | 0/9 |
| E23L/S55T | 50 nM | 3/3 | 2/9 |

From the AlphaSeq antibody data of Engelhart et al. 2022 (doi:10.1038/s41597-022-01779-4), copy in the FLAb collection.